We go through 1 substance from patent US20090203750A1, “5-HT2C Receptor Agonists as Anorectic Agents” (priority 2005, published 2009).

Amino acid sequences for entries named in this document (tags omitted). Residues count along the entry.
UniProt P28335, 33-458: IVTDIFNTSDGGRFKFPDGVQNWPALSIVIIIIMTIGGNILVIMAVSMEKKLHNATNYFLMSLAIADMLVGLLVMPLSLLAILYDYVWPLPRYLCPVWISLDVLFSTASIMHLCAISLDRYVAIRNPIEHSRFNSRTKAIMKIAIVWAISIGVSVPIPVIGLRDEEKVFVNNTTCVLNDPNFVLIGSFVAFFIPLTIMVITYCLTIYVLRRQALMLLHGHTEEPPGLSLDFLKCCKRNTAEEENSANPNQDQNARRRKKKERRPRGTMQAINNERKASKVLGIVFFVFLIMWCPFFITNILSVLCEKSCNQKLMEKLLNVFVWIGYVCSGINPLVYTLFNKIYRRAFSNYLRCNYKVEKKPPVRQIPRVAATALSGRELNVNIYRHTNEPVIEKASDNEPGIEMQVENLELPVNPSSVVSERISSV
UniProt P41595, whole entry: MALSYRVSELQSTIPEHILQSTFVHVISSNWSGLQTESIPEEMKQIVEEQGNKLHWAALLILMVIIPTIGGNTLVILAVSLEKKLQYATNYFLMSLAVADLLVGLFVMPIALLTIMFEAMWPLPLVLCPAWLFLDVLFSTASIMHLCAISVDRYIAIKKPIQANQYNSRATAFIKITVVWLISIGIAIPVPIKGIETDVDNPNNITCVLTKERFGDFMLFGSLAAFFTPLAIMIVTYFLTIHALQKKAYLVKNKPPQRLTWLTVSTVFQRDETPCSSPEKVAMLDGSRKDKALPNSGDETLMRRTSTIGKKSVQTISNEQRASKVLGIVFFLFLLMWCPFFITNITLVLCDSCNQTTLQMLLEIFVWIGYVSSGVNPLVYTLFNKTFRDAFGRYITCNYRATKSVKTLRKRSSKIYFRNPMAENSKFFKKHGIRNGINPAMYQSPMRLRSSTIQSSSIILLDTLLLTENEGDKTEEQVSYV

In one assay the target is T1, human 5-HT2C receptor (Homo sapiens, UniProt P28335).
T1 construct: expressed in transfected cells; host or cells: HEK-293
Put plainly: Functional activity by Ca++-flux (intracellular calcium mobilization), 5-HT2C. It is filed as cell-based. How it is done:
The functional activity of the compounds for the human 5-HT2A, human 5-HT2B, and human 5-HT2C receptors is determined by measurement of Ca++-flux as detailed in the Examples, in transiently transfected HEK-293 cells and the results are summarized in Table I. Structures of compounds listed in Table I are given in Scheme 15.
The functional activity of compounds for the human 5-HT2A, human 5-HT2B, and human 5-HT2C receptors as agonists, partial agonists and antagonists is determined by measurement of Ca++-flux. The results are summarized in Table 1 where EC50 for different receptors are given (nM) and the ratio of activities 2A/2C and 2B/2C are also given. As noted above, other methods for assessing agonist/antagonist function of compounds for 5-HT2 family receptors are known in the art.
For these studies stably expressing lines of h5-HT2A, h5-HT2B, and h5-HT2C receptors are prepared in HEK-293 cells. For the h5-HT2A and h5-HT2C-INI receptors, stably expressing HEK-293 cell lines were constructed as previously described using a pIRES-NEO vector system (See: Rauser et al, J Pharmacol Exp Ther 299: 83-89, 2001).
Stable cell lines were plated with ˜40,000 cells/well into uncoated (3T3 cells) or poly-L-lysine coated (HEK293 cells) 96-well plates in DMEM supplemented with 5% dialyzed FBS. 16-24 hrs post-plating, the medium was aspirated and replaced with 30 μl/well of Calcium Assay Kit Component A Dye (Molecular Devices; Sunnyvale, Calif.) dissolved in 30 ml/bottle of assay buffer (2.5 mM probenecid, 20 mM Hepes, and 1× Hanks' Balanced Salt Solution (Invitrogen; Carlsbad, Calif.) (138 mM NaCl, 5.3 mM KCl, 1.3 mM CaCl2, 0.49 mM MgCl2, 0.41 mM MgSO4, 0.44 mM KH2PO4, 0.34 mM Na2HPO4) pH 7.4. Plates were incubated in the dye for 1 hr at 37° C. Dilutions were made in assay buffer as 2× stocks and added to 96-well drug plates. Fluorometric imaging was performed using a FlexStation II plate reader (Molecular Devices) reading the plate at 1.5 second intervals for 1 min. After establishing a fluorescent baseline (excitation at 485 nm and emission at 525 nm, using a […] cutoff), the FlexStation II automatically transferred 30 μl of 2× drug stocks from the drug plate to the cell plate at the 20 second time point with reading for another 40 seconds. Peak relative fluorescence units (RFU) were subtracted from baseline RFUs using SoftMax Pro (Molecular Devices) and values were imported into GraphPad Prism version 4.03 (GraphPad Software; San Diego, Calif.) for analysis. Ca++-flux studies are very convenient for initial screening of large numbers of compounds for agonist activity.
Compounds are resuspended in DMSO at a stock concentration of 2-15 mM and, for a typical agonist screen, are diluted in assay buffer to a final 2× concentration of 20 μM into drugs plates. […]
In general terms: A change in cytosolic calcium serves as a functional read-out for many receptors and channels.

A further assay concerns the target T2, human 5-HT2B receptor (Homo sapiens, UniProt P41595).
T2 construct: expressed in transfected cells; host or cells: HEK293 (ATCC CRL-1573), retroviral infection with pBabepuro-FLAG-h5-HT2BR, polyclonal line
The assay can be described thus: Functional activity by Ca++-flux (intracellular calcium mobilization), 5-HT2B. It is filed as cell-based. The following applies: HEK-293 cells, NA = not active.

By EC50 is commonly meant the concentration needed to bring the measured effect to its halfway point. Regarding “trans-(±)-[2-(4-Fluoro-phenyl)-cyclopropyl]-methylamine Hydrochloride [TKU-II-90]”, the “activity at 5-HT2C receptor” value on human 5-HT2C receptor is “good potency”. The EC50 on human 5-HT2C receptor (Ca++-flux, HEK-293 cells, NA = not active) was determined as 7.4 nM; on human 5-HT2B receptor it was 7.1 nM. Moreover, the 2A/2C ratio at human 5-HT2C receptor (ratio of EC50 5-HT2A / 5-HT2C) was found to be 0.96. Also, at human 5-HT2C receptor (ratio of EC50 5-HT2B / 5-HT2C), the 2B/2C ratio was 0.96.
